Experimental data reported in patent publication US6090824A, “Therapeutic neurokinin receptor antagonist compounds” (Zeneca Limited, priority 1995, dated 2000).

Chains of the proteins cited; added tags and fusions are not shown.
UniProt P21452, whole entry: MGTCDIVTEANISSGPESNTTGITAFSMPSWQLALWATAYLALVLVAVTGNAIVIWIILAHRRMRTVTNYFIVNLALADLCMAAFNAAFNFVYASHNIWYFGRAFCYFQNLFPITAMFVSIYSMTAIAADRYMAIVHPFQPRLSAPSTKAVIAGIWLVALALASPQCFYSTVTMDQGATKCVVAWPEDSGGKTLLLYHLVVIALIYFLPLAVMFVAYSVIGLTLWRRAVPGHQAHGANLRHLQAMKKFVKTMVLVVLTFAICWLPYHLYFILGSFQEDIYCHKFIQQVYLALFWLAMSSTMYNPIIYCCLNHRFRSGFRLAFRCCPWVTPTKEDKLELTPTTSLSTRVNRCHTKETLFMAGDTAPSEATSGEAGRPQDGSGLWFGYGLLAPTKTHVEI

Biological target: human NK2 receptor (Homo sapiens, UniProt P21452)
Experiment: Neurokinin A (NKA) Receptor Binding Assay (Test B)
Settings: versus 3H-NKA binding to MEL-membranes; initial use of assay, standard compound
From the text: Neurokinin A (NKA) Receptor Binding Assay (Test B)
The selectivity of a Compound for binding at the NK1 and the NK2 receptors may be shown by determining its binding at other receptors using standard assays, for example, one using a tritiated derivative of NKB in a tissue preparation selective for NK3 receptors.

In the case of `CSCC[C@@H]1NC(=O)[C@H](CC(C)C)NC(=O)CNC(=O)[C@H](Cc2ccccc2)NC(=O)[C@H](Cc2c[nH]c3ccccc23)NC(=O)[C@H](CCC(N)=O)NC1=O`, the IC50 is reported as 0.03 µM.
